According to patent publication US11331328B2, “Compositions and methods for inhibiting antiapoptotic Bcl-2 proteins as anti-aging agents” (priority 2014, dated 2022):

Columns and labels:
[1] = test system: senescent WI38 cells induced by expression of oncogenic Ras (Ras-SC); assay: Cell viability, LD50 in oncogenic Ras-induced senescent WI-38 cells; type: cell-based, human; conditions: Table 2
Procedure: (§1) Human WI-38 fibroblasts (WI38 cells, #CCL-75™), human IMR-90 fibroblasts (IMR90 cells, #CCL-186™), human renal epithelial cells (REC cells, #PCS-400-012™) were obtained from ACTT (Manassas, Va., USA). Mouse embryonic fibroblasts (MEF) were isolated from mouse embryos as described^1. All cells were cultured in a complete medium (CM) (Dulbecco's Modified Eagle Medium supplemented with 10% fetal bovine serum [FBS], 100 U/ml penicillin, and 100 μg/ml streptomycin [all from Atlanta Biologicals, Norcross, Ga., and USA]) in a humidified incubator at 37° C. and 5% CO2. Low passages of WI-38 cells (<25), IMR-90 (<25), REC cells (<25) and MEF (<3) were used as non-senescent controls or for induction of senescence to avoid replicative senescence. To induce replicative senescence, WI-38 cells were subcultivated until cell division ceased after about 38 passages or 60 population doublings (FIG. 5)^2. […]
(§2) Flow cytometry: Non-senescent and senescent cells were seeded into wells of 24- or 48-well at about 70% of confluence. […] Viable cells (PI^− cells) were numerated by flow cytometry at a constant flow rate and calculated as a percentage of control cells treated with vehicle using the formula: percentage of control=(Ndrug/NC)×100, where Ndrug and NC represent the absolute number of PI^− viable cells of drug-treated and vehicle-treated cells, respectively. […]

[2] = test system: senescent WI38 cells induced by replicative exhaustion (Rep-SC); assay: Cell viability, LD50 in replicative senescent WI-38 cells; type: cell-based, human; conditions: Table 2
Procedure: as §1, §2

[3] = test system: senescent cells in TBI p16-3MR mice; assay: Senescent cell clearance in TBI p16-3MR mice (luminescence, p16 mRNA); type: in vivo, mouse; conditions: 6 Gy TBI; 2 treatment cycles
[4] = test system: IR-induced senescent WI-38 cells (SC); assay: Cell viability (PI flow cytometry), LD50 in IR-induced senescent WI-38 cells; type: cell-based, human

CC1(C)CCC(c2ccc(Cl)cc2)=C(CN2CCN(c3ccc(C(=O)NS(=O)(=O)c4ccc(N[C@H](CCN5CCOCC5)CSc5ccccc5)c(S(=O)(=O)C(F)(F)F)c4)cc3)CC2)C1 [ABT263, navitoclax]
LD50 Ratio (NC/SC) [1]: 20.32 | LD50 Ratio (NC/SC) [2]: 8.69 | SCs in lungs (luminescence, p16 mRNA) [3]: reduced IR-induced SCs | LD50 Ratio (NC/SC) ([4]; Table 2, IR-SC): 20.66 | LD50 Ratio (NC/SC) ([4]; non-senescent vs IR-induced senescent WI-38 cells): 20.6
